# Data reported in US11026942B2, “Agent for preventing and/or treating Alzheimer's disease” (KYOTO UNIVERSITY, priority 2015, dated 2021).
# Tested on: Aβ42/40 ratio
# Experiment: Aβ42/40 ratio in FAD1 iPS cell-derived nerve cells (primary/secondary screening, dose dependency)
# Assay type: cell-based, human
# Conditions: secondary screening
structure (smiles),measurement,value
"O=C(O)COCCN1CCN([C@H](c2ccccc2)c2ccc(Cl)cc2)CC1 [compound 30, LEVOCETIRIZINE]",Ratio Aβ42/40,0.85
